This is an account of results in patent publication US5654299A, “Aryl substituted heterocycles” (Zeneca Limited, priority 1993, dated 1997).

The chains behind the UniProt entries cited, without tags or fusion partners.
UniProt P21452, whole entry: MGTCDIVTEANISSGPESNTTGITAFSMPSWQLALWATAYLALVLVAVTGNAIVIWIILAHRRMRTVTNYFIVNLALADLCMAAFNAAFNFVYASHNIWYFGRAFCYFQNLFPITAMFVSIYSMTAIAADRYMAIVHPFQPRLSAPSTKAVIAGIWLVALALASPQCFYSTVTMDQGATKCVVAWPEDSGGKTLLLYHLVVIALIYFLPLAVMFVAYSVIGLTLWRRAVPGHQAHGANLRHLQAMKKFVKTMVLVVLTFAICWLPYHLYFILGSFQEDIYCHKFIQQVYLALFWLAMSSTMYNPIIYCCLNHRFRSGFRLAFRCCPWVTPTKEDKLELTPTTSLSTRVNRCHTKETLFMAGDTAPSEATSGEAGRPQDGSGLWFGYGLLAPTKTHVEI

One assay has as its target human NK2 receptor (Homo sapiens, UniProt P21452). As to the kind of experiment: Neurokinin A (NKA) Receptor-binding Assay (Test A), 3H-NKA binding to MEL cell membranes (MELM). Particulars: read-out: IC50 versus 3H-NKA binding to MELM; initial use of Test A; standard compound.
In another assay the test system is NK2. Particulars: literature; cited from earlier work.

A word on the IC50: it is the point on the concentration scale where inhibition reaches its midpoint. Consider `CSCC[C@@H]1NC(=O)[C@H](CC(C)C)NC(=O)CNC(=O)[C@H](Cc2ccccc2)NC(=O)[C@H](Cc2c[nH]c3ccccc23)NC(=O)[C@H](CCC(N)=O)NC1=O`, for which the IC50 at human NK2 receptor is 30 nM. Moreover, in the assay with NK2, the “NK2 antagonism, selectivity in words” value is reported as “selective NK2 antagonist”.
